Source: BindingDB's records for doi:10.1016/j.ejmech.2015.02.004 (Stanford University School of Medicine, 2015)
pKi: −log10 of the molar value.

By UniProt entry, the sequences of proteins in these tests, tags left out.
UniProt P30536, whole entry: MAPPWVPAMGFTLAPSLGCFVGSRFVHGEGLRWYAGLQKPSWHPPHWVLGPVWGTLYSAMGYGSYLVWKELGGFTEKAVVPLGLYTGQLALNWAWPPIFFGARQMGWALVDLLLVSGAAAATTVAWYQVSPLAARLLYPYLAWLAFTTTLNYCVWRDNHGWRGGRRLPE

Target: Translocator protein (Homo sapiens, UniProt P30536)
Experiment: Inhibition of human TSPO

In the case of CC[C@@H](C)N(C)C(=O)c1cc2ccccc2c(-c2ccccc2Cl)n1 [PK 11195], the pKi was 8.35.
